Compound activity (PubChem)
Cneo AK release: Cryptococcus neoformans cell lysis inducers, primary screen, AK release luminescence, single concentration. C. neoformans lysis, adenylate kinase release luminescence, 4 h; normalised: neutral wells 0, clomiphene wells 100. lysis activity, % at 15 µM. actives 0.2% (n = 360,000). AID 651654, 2012;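 active means mean lysis activity across replicates of at least 80%, whatever share of replicates individually reach that level; inactive means mean lysis activity below 80%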
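read-out = cell lysis signal | test system = log-phase Cryptococcus neoformans yeast cells | input = cells at 5 × 10^6 per mL | medium = fresh YPD growth medium | signal = luminescent adenylate kinase detection reagent | timing = 4 h at 37 °C static, read 1 h later | dosing = single dose | controls = Clomiphene as positive lysis control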
E-selectin induc: E-selectin induction in HUVECs, primary screen, imaging, HUVEC, immunofluorescence imaging, single point | P16581 | activation, % at 7.58 µM | normalized: neutral wells 0, TNF-alpha wells 100 | actives 0.37% (n = 260,000);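 active means mean E-selectin-positive cell signal at least 10% of the positive control, reached in at least 60% of replicates, without over 20% cell loss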
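System: HUVEC, human umbilical vein endothelial cells; quantity: 3,000 cells/well; buffer or medium: EGM-2 medium, gelatin-coated wells; dosing: single-point compound dose; detection: immunofluorescence imaging; evaluation: % PE-positive cells; benchmarks: TNF-alpha, DMSO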
DENV2 CPE rescue: inhibitors of DENV2 cytopathic effect, primary screen, cell-based, plate reader, single concentration | DENV2-infected cells, cytopathic effect rescue | CPE inhibition, % at 9.99 µM | actives 1.7% (n = 350,000) | AID 651640, 2012; in the data active means CPE inhibition above about 20%, passing the limit was not always enough; tested in BHK-21 cells;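 further: 0% = median of neutral control wells and 100% = median of positive control wells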
UUG fidelity: yeast start codon fidelity modulation; AID 602363; activity score, % at 18.7 µM; S. cerevisiae UUG-firefly luciferase reporter, luminescence/redox ratio; 0.13% of 350,000 active;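 active means replicate mean at a twofold rise or more, about +100% in these data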;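 further: firefly luciferase made from a UUG start codon reports start codon fidelity; reporter light over untreated wells divided by growth signal over untreated wells; some hits fall short of that in this replicate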
The depositor's hits bear a star; . = not tested or not shown. In the library only some 1.8% were active in any assay of this set; here they are far more common.

Letters – A = Cneo AK release; B = E-selectin induc; C = DENV2 CPE rescue; D = UUG fidelity
CO[C@@H]1CN(C)C(=O)c2ccc(NC(=O)C3CCC3)cc2OC[C@H](C)NC[C@@H]1C
  A: 1.3 | B: -0.1 | C: 34.3* | D: -17.3

CO[C@H]1CN(C)C(=O)c2ccc(NC(=O)C3CCC3)cc2OC[C@@H](C)NC[C@@H]1C
  A: -1.3 | B: 0.0 | C: -4.2 | D: -16.6

COc1ccc(NC(=O)Nc2ccc3c(c2)OC[C@@H](C)NC[C@H](C)[C@H](OC)CN(C)C3=O)cc1
  A: . | B: 0.2 | C: 22.2* | D: .

CN1C(=O)c2cc(NC(=O)c3ccccc3Cl)ccc2OC[C@@H]2O[C@H](CC(=O)O)CC[C@@H]21
  A: -2.2 | B: -0.1 | C: -3.3 | D: -5.6

CO[C@H]1CN(C)C(=O)c2ccc(NC(=O)NC(C)C)cc2OC[C@H](C)NC[C@@H]1C
  A: . | B: -0.1 | C: 29.6* | D: .

C[C@H](CO)N1C[C@H](C)[C@@H](CN(C)C(=O)Nc2ccccc2)Oc2ccc(NS(=O)(=O)c3ccc(F)cc3)cc2C1=O
  A: 0.0 | B: 0.7 | C: 1.7 | D: 3.3

C[C@@H]1CN([C@@H](C)CO)C(=O)c2cc(NS(=O)(=O)c3ccc(F)cc3)ccc2O[C@@H]1CN(C)C(=O)Nc1ccccc1
  A: 0.4 | B: -0.2 | C: 36.2* | D: 22.6

C[C@H]1CN([C@@H](C)CO)C(=O)c2cc(NS(=O)(=O)c3ccc(F)cc3)ccc2O[C@H]1CN(C)C(=O)Nc1ccccc1
  A: -0.3 | B: -0.2 | C: 27.3* | D: 12.4

N#CCCn1cc(C(=O)CN2C(=O)NC3(CCc4ccccc43)C2=O)c2ccccc21 (centres undefined)
  A: -1.3 | B: . | C: 33.6* | D: -1.1

C[C@@H]1CN([C@@H](C)CO)C(=O)c2cc(C#Cc3ccccn3)cnc2O[C@@H]1CN(C)CC1CCCC1
  A: . | B: -2.9 | C: . | D: .

C[C@H]1CCCCO[C@H](CN(C)C(=O)NC2CCCCC2)[C@@H](C)CN([C@@H](C)CO)C(=O)c2cc(NS(=O)(=O)c3cccs3)ccc2O1
  A: -3.3 | B: 0.0 | C: 6.6 | D: 2.2

CCCCCCN(C(=O)CCCCCN1C(=O)NC(c2ccc(-c3ccccc3)cc2)C(C(=O)OCc2ccccc2)=C1C)C(C(=O)NCCCC)C1CCCCC1 (centres undefined)
  A: . | B: -0.1 | C: 0.1 | D: .

CCCCCCN(C(=O)CCCCCN1C(=O)NC(c2ccc(-c3ccccc3)cc2)C(C(=O)OCc2ccccc2)=C1C)C(C(=O)NCCCC)c1ccccn1 (centres undefined)
  A: . | B: 0.1 | C: 23.2* | D: .

CC1(C)Oc2ccc3ccc(=O)oc3c2C[C@H]1O[C@@H]1O[C@H](CO)[C@@H](O)[C@H](O)[C@H]1O
  A: 8.9 | B: -0.3 | C: 41.3* | D: 10.8

CC1(C)Oc2ccc3ccc(=O)oc3c2CC1O (centres undefined)
  A: 0.9 | B: . | C: 4.7 | D: -12.7

C[C@@H]1CCCCO[C@@H](CN(C)C(=O)NC2CCCCC2)[C@H](C)CN([C@@H](C)CO)C(=O)c2cc(NC(=O)CCCCCC(=O)Nc3ccccc3N)ccc2O1
  A: 68.8 | B: -0.2 | C: -3.5 | D: 5.7

C[C@@H]1CCCCO[C@H](CN(C)C(=O)NC2CCCCC2)[C@@H](C)CN([C@H](C)CO)C(=O)c2cc(NC(=O)CCCCCC(=O)Nc3ccccc3N)ccc2O1
  A: 1.6 | B: -0.1 | C: 112.1* | D: 13.5

C[C@@H]1CCCCO[C@H](CN(C)C(=O)c2ccccc2)[C@H](C)CN([C@@H](C)CO)C(=O)c2cc(NC(=O)CCCCCC(=O)Nc3ccccc3N)ccc2O1
  A: -1.2 | B: . | C: 20.3* | D: -13.2

Cc1noc(C)c1S(=O)(=O)N(C)C[C@H]1OCCCC[C@@H](C)Oc2ccc(NC(=O)CCCCCC(=O)Nc3ccccc3N)cc2C(=O)N([C@@H](C)CO)C[C@@H]1C
  A: 96.7* | B: 0.4 | C: . | D: 6.1

C[C@@H]1CN([C@H](C)CO)C(=O)c2cc(NC(=O)NC3CCCCC3)ccc2O[C@@H](C)CCCCO[C@@H]1CN(C)C(=O)C1CCCCC1
  A: -0.3 | B: . | C: 2.3 | D: 0.8

COc1ccc(C#Cc2ccc3c(c2)O[C@@H](CN(C)C(C)=O)[C@@H](C)CN([C@@H](C)CO)S3(=O)=O)cc1
  A: 0.8 | B: 0.1 | C: -11.2 | D: 13.6

CCOC(=O)C(=C1Nc2ccccc2N1)n1c(-c2cnccn2)nc2ccccc21
  A: . | B: -0.1 | C: 57.3* | D: .

CCOC(=O)C(=C1Nc2ccccc2N1)n1c(-c2ccco2)nc2ccccc21
  A: . | B: 0.6 | C: -21.6 | D: .

CC(C)C(=O)Nc1ccc2c(c1)C(=O)N(C)[C@H]1CC[C@@H](CC(=O)NCCc3ccccc3)O[C@H]1CO2
  A: . | B: 0.0 | C: . | D: .

C[C@H](CO)N1C[C@H](C)[C@@H](CN(C)Cc2ccccc2)Oc2ccc(NS(=O)(=O)c3ccc(F)cc3)cc2C1=O
  A: -2.1 | B: -0.1 | C: -5.4 | D: 4.1

C[C@@H]1CN([C@H](C)CO)C(=O)c2cc(NS(=O)(=O)c3ccc(F)cc3)ccc2O[C@H]1CN(C)Cc1ccc(-c2ccccc2)cc1
  A: -1.8 | B: 0.1 | C: 30.3* | D: -8.9

C[C@H]1CN([C@@H](C)CO)C(=O)c2cc(NS(=O)(=O)c3ccc(F)cc3)ccc2O[C@H]1CN(C)Cc1ccccc1
  A: -3.0 | B: 0.3 | C: 47.1* | D: 1.6

C[C@@H]1CN([C@@H](C)CO)C(=O)c2cc(NS(C)(=O)=O)ccc2O[C@H]1CN(C)Cc1ccc(-c2ccccc2)cc1
  A: 2.4 | B: 0.1 | C: 31.6* | D: 11.7

Cc1ccc(S(=O)(=O)Nc2ccc3c(c2)C(=O)N([C@H](C)CO)C[C@@H](C)[C@H](CN(C)C(=O)C2CCCCC2)OCCCC[C@H](C)O3)cc1
  A: -2.0 | B: 0.0 | C: -11.2 | D: -3.4

CN1CCc2c(sc(N)c2C(=O)c2ccc(Cl)cc2)C1
  A: 164.3* | B: . | C: -8.1 | D: -6.2

2 entries drawn at random from those above:
Letters – A = Cneo AK release; B = E-selectin induc; C = DENV2 CPE rescue; D = UUG fidelity
C[C@@H]1CCCCO[C@H](CN(C)C(=O)NC2CCCCC2)[C@@H](C)CN([C@H](C)CO)C(=O)c2cc(NC(=O)CCCCCC(=O)Nc3ccccc3N)ccc2O1
  A: 1.6 | B: -0.1 | C: 112.1* | D: 13.5

C[C@H]1CN([C@@H](C)CO)C(=O)c2cc(NS(=O)(=O)c3ccc(F)cc3)ccc2O[C@H]1CN(C)Cc1ccccc1
  A: -3.0 | B: 0.3 | C: 47.1* | D: 1.6

(continued)
Letters – A = Cneo AK release; B = E-selectin induc; C = DENV2 CPE rescue; D = UUG fidelity
C[C@H]1CN([C@@H](C)CO)C(=O)c2cc(NC(=O)CCCN(C)C)ccc2O[C@H]1CN(C)S(=O)(=O)c1ccc(F)cc1
  A: -1.3 | B: -0.7 | C: -5.1 | D: -5.9

O=C1C(Cl)=C(Nc2ccc(O)cc2)C(=O)c2ccccc21
  A: . | B: 0.5 | C: 8.1 | D: .

Cc1ccc(NC2=C(Cl)C(=O)c3ccccc3C2=O)cc1
  A: 2.9 | B: 1.9 | C: 83.3* | D: -24.7

C[C@H]1CN([C@@H](C)CO)C(=O)Cc2cc(NC(=O)Cn3cnnn3)ccc2O[C@H]1CN(C)S(=O)(=O)c1ccc(Cl)cc1
  A: 7.0 | B: 0.0 | C: 1.4 | D: -1.9

C[C@@H]1CN([C@H](C)CO)C(=O)c2cc(NC(=O)Nc3ccc4c(c3)OCO4)ccc2O[C@H]1CN(C)S(=O)(=O)c1ccccc1
  A: 47.7 | B: 33.7* | C: -7.1 | D: 6.2

C[C@@H]1CN([C@@H](C)CO)C(=O)c2cccc(NC(=O)Nc3ccc4c(c3)OCO4)c2O[C@H]1CN(C)S(=O)(=O)c1ccc(F)cc1
  A: -0.6 | B: 55.4* | C: -5.9 | D: 1.6

C[C@H](CO)N1C[C@H](C)[C@H](CN(C)S(=O)(=O)c2ccc(F)cc2)Oc2ccc(NC(=O)Nc3ccc4c(c3)OCO4)cc2C1=O
  A: 3.8 | B: -16.0 | C: -4.6 | D: -9.7

C[C@H]1CN([C@@H](C)CO)C(=O)c2cc(NC(=O)Nc3ccc4c(c3)OCO4)ccc2O[C@@H]1CN(C)S(=O)(=O)c1ccc(F)cc1
  A: -4.2 | B: 50.3* | C: 9.7 | D: -8.5

O=C(O)c1ccccc1
  A: -1.7 | B: . | C: 110.1* | D: -15.3

O=C(c1ccccc1)N1CCN(C(=O)c2ccccc2)CC1
  A: -1.5 | B: . | C: . | D: 11.2

Looked up above.
UUG fidelity, `O=C(c1ccccc1)N1CCN(C(=O)c2ccccc2)CC1` = 11.2
E-selectin induc, `C[C@H]1CN([C@@H](C)CO)C(=O)c2cc(NC(=O)Nc3ccc4c(c3)OCO4)ccc2O[C@@H]1CN(C)S(=O)(=O)c1ccc(F)cc1` = 50.3*
UUG fidelity, `C[C@H]1CN([C@@H](C)CO)C(=O)c2cc(NC(=O)CCCN(C)C)ccc2O[C@H]1CN(C)S(=O)(=O)c1ccc(F)cc1` = -5.9
